System: Streptococcus pneumoniae 5979
Experiment: In vitro agar dilution MIC, organism code ZZ
Type: cell-based
Details: Table 1B, unit assumed
Description: Representative compounds of the present invention were assayed in vitro for antibacterial activity as follows: Twelve petri dishes containing successive aqueous dilutions of the test compound mixed with 10 mL of sterilized Brain Heart Infusion (BHI) agar (Difco 0418-01-5) were prepared. Each plate was inoculated with 1:100 (or 1:10 for slow-growing strains, such as Micrococcus and Streptococcus) dilutions of up to 32 different microorganisms, using a Steers replicator block. The inoculated plates were incubated at 35-37° C. for 20 to 24 hours. In addition, a control plate, using BHI agar containing no test compound, was prepared and incubated at the beginning and end of each test.
An additional plate containing a compound having known susceptibility patterns for the organisms being tested and belonging to the same antibiotic class as the test compound was also prepared and incubated as a further control, as well as to provide test-to-test comparability.
After incubation, each plate was visually inspected. The minimum inhibitory concentration (MIC) was defined as the lowest concentration of drug yielding no growth, a slight haze, or sparsely isolated colonies on the inoculum spot as compared to the growth control.

**Q.** How did the MIC turn out when `CC[C@H]1OC(=O)[C@H](C)[C@@H](O[C@H]2C[C@@](C)(OC)[C@@H](O)[C@H](C)O2)[C@H](C)[C@@H](O[C@@H]2O[C@H](C)C[C@H](N(C)C)[C@H]2O)[C@](C)(O)C[C@@H](C)C(=O)[C@H](C)[C@@H](O)[C@]1(C)O` [Ery. A, Erythromycin A, reference compound] was run?
**A.** > 128 µg/mL

Source: patent US6124269A, “2-Halo-6-O-substituted ketolide derivatives” (priority 1998, dated 2000)
